# In ChEMBL document CHEMBL4680082 (J Med Chem, 2016):
# The chains behind the UniProt entries cited, without tags or fusion partners. Where a name states a change or a piece, a line headed by the entry shows the natural chain unless it says otherwise.
# UniProt P28223, whole entry: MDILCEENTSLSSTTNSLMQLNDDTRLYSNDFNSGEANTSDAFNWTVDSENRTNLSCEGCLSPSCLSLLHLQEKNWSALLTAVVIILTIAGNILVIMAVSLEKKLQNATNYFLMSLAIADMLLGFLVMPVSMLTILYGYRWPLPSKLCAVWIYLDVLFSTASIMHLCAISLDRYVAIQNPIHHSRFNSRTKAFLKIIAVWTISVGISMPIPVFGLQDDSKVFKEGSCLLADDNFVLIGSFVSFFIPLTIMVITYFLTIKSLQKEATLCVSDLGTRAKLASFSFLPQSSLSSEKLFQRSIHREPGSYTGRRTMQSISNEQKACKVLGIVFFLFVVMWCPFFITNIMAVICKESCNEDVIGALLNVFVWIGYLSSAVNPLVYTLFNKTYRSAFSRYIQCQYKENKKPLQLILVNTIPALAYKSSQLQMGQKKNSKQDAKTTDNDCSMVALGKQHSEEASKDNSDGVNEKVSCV
# UniProt P41595, whole entry: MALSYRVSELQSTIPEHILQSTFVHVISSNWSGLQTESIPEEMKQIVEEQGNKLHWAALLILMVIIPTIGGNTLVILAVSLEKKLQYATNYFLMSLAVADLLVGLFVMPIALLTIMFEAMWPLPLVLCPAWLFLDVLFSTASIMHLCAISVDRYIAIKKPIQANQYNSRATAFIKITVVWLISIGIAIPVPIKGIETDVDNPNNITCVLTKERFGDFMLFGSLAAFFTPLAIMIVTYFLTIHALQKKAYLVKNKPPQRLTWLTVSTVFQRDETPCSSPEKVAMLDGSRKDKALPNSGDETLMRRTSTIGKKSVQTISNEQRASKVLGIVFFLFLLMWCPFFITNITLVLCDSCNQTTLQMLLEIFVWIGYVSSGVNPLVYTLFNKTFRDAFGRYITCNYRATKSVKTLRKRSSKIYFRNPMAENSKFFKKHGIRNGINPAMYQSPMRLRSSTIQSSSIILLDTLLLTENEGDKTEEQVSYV
# UniProt P28335: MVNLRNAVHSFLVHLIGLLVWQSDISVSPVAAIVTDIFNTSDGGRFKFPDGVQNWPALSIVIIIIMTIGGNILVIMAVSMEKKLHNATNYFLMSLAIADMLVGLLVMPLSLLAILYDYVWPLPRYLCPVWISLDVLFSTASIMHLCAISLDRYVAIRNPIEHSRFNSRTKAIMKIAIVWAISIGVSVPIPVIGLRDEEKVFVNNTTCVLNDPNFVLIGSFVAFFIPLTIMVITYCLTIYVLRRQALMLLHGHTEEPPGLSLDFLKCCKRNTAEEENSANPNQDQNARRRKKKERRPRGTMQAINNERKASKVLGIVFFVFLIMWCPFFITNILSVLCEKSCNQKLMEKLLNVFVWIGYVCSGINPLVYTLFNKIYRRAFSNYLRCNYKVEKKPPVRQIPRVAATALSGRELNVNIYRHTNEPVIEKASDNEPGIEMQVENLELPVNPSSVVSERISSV
# Active and inactive are the calls of the source. The rule behind the calls is not given here.
# Columns and labels:
# Assay type in all cases: functional, cell-based
# Settings in all cases: dose microM <=10, time 1.0 hrs
# [1] = target: 5-hydroxytryptamine receptor 2A (Homo sapiens, UniProt P28223); assay: Agonist activity at human 5-HT2A receptor expressed in human Flp-In-293 cells assessed as induction of calcium flux up to 10 uM incubated for 1 hr by Fluo-4 direct dye based FLIPR assay
# [2] = target: 5-hydroxytryptamine receptor 2B (Homo sapiens, UniProt P41595); assay: Agonist activity at human 5-HT2B receptor expressed in human Flp-In-293 cells assessed as induction of calcium flux up to 10 uM incubated for 1 hr by Fluo-4 direct dye based FLIPR assay
# [3] = target: 5-hydroxytryptamine receptor 2C (Homo sapiens, UniProt P28335); assay: Agonist activity at human 5-HT2C receptor expressed in human Flp-In-293 cells assessed as induction of calcium flux up to 10 uM incubated for 1 hr by Fluo-4 direct dye based FLIPR assay
Activity [1],Activity [2],Activity [3],Structure (SMILES)
inactive,–,–,NC[C@@H]1C[C@H]1c1c(OCC2CC2)ccc2occc12
–,inactive,–,CCCOc1ccc2occc2c1[C@H]1C[C@@H]1CN
inactive,–,–,C=C(F)COc1ccc2occc2c1[C@@H]1C[C@H]1CN
inactive,inactive,–,C=CCOc1ccc2occc2c1[C@@H]1C[C@H]1CN
inactive,–,–,C=C(C)COc1ccc2occc2c1[C@@H]1C[C@H]1CN
inactive,inactive,–,CCCOc1ccc2occc2c1[C@@H]1C[C@H]1CN
inactive,inactive,–,CCCOc1ccc2oc(CC)cc2c1[C@H]1C[C@@H]1CN

# The remaining lines, values behind:
Structure (SMILES),Activity [1],Activity [2],Activity [3]
CCc1cc2c([C@@H]3C[C@H]3CN)c(OCC3CC3)ccc2o1,inactive,inactive,–
NC[C@H]1C[C@@H]1c1c(OCCF)ccc2c1CCO2,–,inactive,–
CCCOc1ccc2oc(CC)cc2c1[C@@H]1C[C@H]1CN,inactive,inactive,inactive
CCCOc1ccc2c(c1[C@@H]1C[C@H]1CN)CCO2,inactive,inactive,–
C=CCOc1ccc2oc(CC)cc2c1[C@H]1C[C@@H]1CN,inactive,–,–
CCOc1ccc2oc(CC)cc2c1[C@@H]1C[C@H]1CN,inactive,inactive,–
NC[C@@H]1C[C@H]1c1c(OCCF)ccc2c1CCO2,–,inactive,–
NC[C@@H]1C[C@H]1c1c(OCC2CC2)ccc2c1CCO2,inactive,inactive,–
CCOc1ccc2occc2c1[C@@H]1C[C@H]1CN,–,inactive,–
CCc1cc2c([C@@H]3C[C@H]3CN)c(OCCF)ccc2o1,inactive,inactive,–
C=CCOc1ccc2c(c1[C@@H]1C[C@H]1CN)CCO2,inactive,inactive,–
CCc1cc2c([C@@H]3C[C@H]3CN)c(OC)ccc2o1,inactive,inactive,–
C=CCOc1ccc2oc(CC)cc2c1[C@@H]1C[C@H]1CN,inactive,inactive,inactive
CCc1cc2c([C@H]3C[C@@H]3CN)c(OCC3CC3)ccc2o1,inactive,inactive,–
